Values of other authors in patent US12274284B2, “High-energy food supplement based on inverted sugars and ergogenic products for use in physical activity and method for producing same” (priority 2019, dated 2025).

What was measured:
[1] = in vivo
[2] = 0.03 g/kg and 5 g/day, eight weeks of resisted exercises

methyl-guanidinoacetic acid [creatine]
strength relatively to the control group [1]: considerably increased strength | kidney and liver function [2]: does not change the kidney or liver function
